“And” between values parts separate entries of the source, which are not always exact repeats. Equal values may be shown once.
How the values were obtained:
opioid receptor = conditions: Ki opioid site and sigma site 2 versus α7
human α7 receptors = human α7 receptors (Homo sapiens, UniProt P36544); conditions: oocytes, voltage clamp; relative to ACh

Protein sequences, listed by entry. Tags and fused reporters are not part of them. Residues count along the entry.
UniProt P36544, 23-502: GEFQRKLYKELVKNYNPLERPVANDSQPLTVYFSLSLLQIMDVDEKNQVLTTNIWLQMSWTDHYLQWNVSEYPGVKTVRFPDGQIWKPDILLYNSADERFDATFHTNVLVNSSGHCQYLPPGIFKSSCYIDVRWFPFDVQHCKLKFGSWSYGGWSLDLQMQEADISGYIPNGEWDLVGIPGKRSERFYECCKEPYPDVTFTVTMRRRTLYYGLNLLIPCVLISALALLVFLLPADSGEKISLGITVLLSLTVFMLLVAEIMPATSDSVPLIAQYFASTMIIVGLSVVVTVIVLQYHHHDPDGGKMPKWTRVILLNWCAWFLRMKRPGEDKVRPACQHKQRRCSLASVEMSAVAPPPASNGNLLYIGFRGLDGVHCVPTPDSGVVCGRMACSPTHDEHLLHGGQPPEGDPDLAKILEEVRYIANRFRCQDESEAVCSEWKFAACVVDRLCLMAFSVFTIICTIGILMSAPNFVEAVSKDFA

SMILES: O=C(N[C@@H]1C2CCN(CC2)[C@H]1Cc1cccnc1)c1cc2ccccc2o1 [Compound A, (2S,3R)—N-(2-((3-pyridinyl)methyl)-1-azabicyclo[2.2.2]oct-3-yl)benzofuran-2-carboxamide]
- separation from the binding affinity at α7 (opioid receptor): greater than 1000 fold
- α7 Function Emax (% ACh) (human α7 receptors): 100 % ACh and 100 ± 7 % ACh
